# According to PubChem BioAssay AID639 (Emory University Molecular Libraries Screening Center, 2007):
# Sequences of proteins named here, by UniProt entry; tags and fusion partners are left off.
# UniProt P03372, whole entry, looked up: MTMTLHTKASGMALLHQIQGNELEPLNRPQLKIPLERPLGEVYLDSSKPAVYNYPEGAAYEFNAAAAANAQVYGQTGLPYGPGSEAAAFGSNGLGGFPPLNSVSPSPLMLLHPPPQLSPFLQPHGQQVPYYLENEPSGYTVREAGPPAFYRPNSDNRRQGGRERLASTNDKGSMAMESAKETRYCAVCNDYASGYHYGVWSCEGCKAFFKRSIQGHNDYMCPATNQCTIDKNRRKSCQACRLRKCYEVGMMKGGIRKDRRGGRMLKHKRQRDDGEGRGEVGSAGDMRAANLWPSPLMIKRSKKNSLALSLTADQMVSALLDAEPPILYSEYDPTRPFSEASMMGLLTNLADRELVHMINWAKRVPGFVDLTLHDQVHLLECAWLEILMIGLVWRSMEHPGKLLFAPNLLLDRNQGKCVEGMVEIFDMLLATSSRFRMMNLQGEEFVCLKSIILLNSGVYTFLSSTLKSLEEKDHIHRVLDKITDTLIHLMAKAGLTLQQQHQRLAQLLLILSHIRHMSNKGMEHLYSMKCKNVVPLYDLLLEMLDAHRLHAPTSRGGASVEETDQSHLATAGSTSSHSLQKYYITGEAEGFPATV
# The list shows a part of the results, in another mix than the full data. Calls of active or inactive are those of the source. No stated cut-off is given here; in the data, active means activity above about 200%; inactive means the rest.
# Target: Estrogen receptor (Homo sapiens) (UniProt P03372)
# Experiment: enhancers of ERα–SRC-1 coactivator binding, primary screen, biochemical, TR-FRET, ERα LBD, low estradiol (AID 639);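 further: binding measured in presence of low estradiol as agonist stimulus; 0% = peptide alone without receptor and 100% = receptor with peptide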
# Details: TR-FRET ERalpha-LBD/SRC-Cy5 coactivator binding, 2 h; at 25.6 µM; active compounds read high; 100 = basal binding, no effect
row,Compound,coactivator binding (% of control)
1,c1nnnn1CCn1cnnn1,inactive: 120%
2,O=P(Nc1nccs1)(c1ccccc1)c1ccccc1,inactive: 104%
3,O=C(OC1CN2CCC1CC2)c1cccc(Cl)c1 (configuration not stated),inactive: 76.5%
4,COC(=O)c1cc2c(s1)N=C(c1ccccc1)N(C)P2(=O)N1CCOCC1 (configuration not stated),inactive: 99%
5,O=P1(Nc2nc3ccc(Cl)cc3s2)COc2ccccc2O1 (configuration not stated),inactive: 104%
6,CN1CCCC(OC(=O)C(c2ccccc2)c2ccccc2)C1 (configuration not stated),inactive: 119%
7,Cc1c2non([O-])c-2c(C)[n+](=O)[n+]1[O-],inactive: 95.8%
8,Oc1ccccc1CNc1ccccn1,inactive: 117%
9,CCOP(=O)(Nc1ccccc1)OCC,inactive: 92.8%
10,O=[N+]([O-])c1cccc2n[nH]nc12,inactive: 106%
11,CCc1nc2c(n1)c1c(non1O)c1c2no[n+]1[O-],inactive: 96%
12,CC1CCN(C(=O)Oc2c(Cl)cc(Cl)c3cccnc23)CC1,inactive: 92.6%
13,O=C(COc1ccccc1)OC1CN2CCC1CC2 (configuration not stated),inactive: 110%
14,COP1(=S)c2c(C)nn(CCC#N)c2N=C(c2ccc(F)cc2)N1C (configuration not stated),inactive: 121%
15,CCC(C)N(CC(C)C)C(=S)SC(NC(C)=O)C(Cl)(Cl)Cl (configuration not stated),inactive: 113%
16,ClCCSc1nnc(-c2cccnc2)o1,inactive: 100%
17,O=C(OC1CN2CCC1CC2)C12CC3CC(CC(C3)C1)C2 (configuration not stated),inactive: 107%
18,Cc1cccc(OCC(=O)OC2CN3CCC2CC3)c1 (configuration not stated),inactive: 88.1%
19,CCOP1(=S)c2c(C)nn(CCC#N)c2N=C(c2ccccc2F)N1C (configuration not stated),inactive: 103%
20,CCOP1(=S)c2c(C)nn(CCC#N)c2N=C(c2ccc(F)cc2)N1C (configuration not stated),inactive: 96.8%
21,Cc1nn(-c2ccccc2)c2c1P(=O)(N1CCOCC1)N(C)C(c1ccccc1)=N2 (configuration not stated),inactive: 101%
22,Cc1ccc(OCC(=O)OC2CN3CCC2CC3)cc1 (configuration not stated),inactive: 108%
23,O=P1(Nc2ccc(Br)cn2)COc2ccccc2OC1,inactive: 87.2%
24,O=P1(Nc2ncccn2)COc2ccccc2OC1,inactive: 99.5%
25,Clc1n[nH]nc1-c1nn[nH][15n]1,inactive: 124%
26,O=P1(Nc2ccccn2)COc2ccccc2OC1,inactive: 126%
27,CC1(CBr)Cn2c(nc3ccccc3c2=O)S1 (configuration not stated),inactive: 98.5%
